Legend:
[1] = molecular target: T1, Acetylcholinesterase (EC 3.1.1.7) (Homo sapiens, UniProt P22303); assay type: biochemical; settings: pH 8; read-out: AChE ± SEM (IC50)
T1 construct: purchased Sigma, Pakistan
Description: (§1) All other chemicals were of analytical grade and were used as such without further purification. Acetylcholinesterase (AChE) and butyrylcholinesterase (BChE) inhibiting activities were measured according to a modified spectrophotometric method used by Ellman et al.. Protocol and assay conditions were the same as described by Rocha et al..
(§2) The Acetylthiocholine iodide and butyrylthiocholine chloride were used as substrates for investigation of acetylcholinesterase and butyrylcholinesterase assays, respectively. The 5,5′-Dithiobis[2-nitrobenzoic-acid] (DTNB) was used for the measurement of cholinesterase activity. The 0.2 mM DTNB in 62 mM sodium phosphate buffer (pH 8.0, 880 µL), test compound solution (40 µL) and acetylcholinesterase or butyrylcholinesterase solution (40 µL) were mixed and incubated for 15 minutes (25°C). The reaction was then initiated by the addition of acetylthiocholine or butyrylthiocholine (40 µL), respectively. […] All the reactions were performed in triplicate using a BMS spectrophotometer (USA). […] The final concentration of DMSO in the reaction mixture was maintained at 6%.

Amino acid sequences for entries named in this document (tags omitted). Residues count along the entry.
UniProt P22303, 32-614: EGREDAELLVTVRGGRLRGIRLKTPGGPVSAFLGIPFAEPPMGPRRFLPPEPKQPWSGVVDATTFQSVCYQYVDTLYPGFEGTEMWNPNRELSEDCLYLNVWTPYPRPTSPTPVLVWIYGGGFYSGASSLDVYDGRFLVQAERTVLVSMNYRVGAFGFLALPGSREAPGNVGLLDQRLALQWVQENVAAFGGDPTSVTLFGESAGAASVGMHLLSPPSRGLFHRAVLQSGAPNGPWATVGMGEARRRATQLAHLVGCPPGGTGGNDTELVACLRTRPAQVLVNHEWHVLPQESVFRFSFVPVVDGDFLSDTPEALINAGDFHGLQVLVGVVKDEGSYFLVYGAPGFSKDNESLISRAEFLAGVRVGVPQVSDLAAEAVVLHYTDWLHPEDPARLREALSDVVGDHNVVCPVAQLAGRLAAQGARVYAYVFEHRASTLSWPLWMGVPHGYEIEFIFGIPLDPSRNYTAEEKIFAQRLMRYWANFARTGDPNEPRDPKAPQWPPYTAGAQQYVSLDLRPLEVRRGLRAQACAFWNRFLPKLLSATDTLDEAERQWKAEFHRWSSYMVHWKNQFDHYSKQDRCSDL
UniProt P81908, whole entry: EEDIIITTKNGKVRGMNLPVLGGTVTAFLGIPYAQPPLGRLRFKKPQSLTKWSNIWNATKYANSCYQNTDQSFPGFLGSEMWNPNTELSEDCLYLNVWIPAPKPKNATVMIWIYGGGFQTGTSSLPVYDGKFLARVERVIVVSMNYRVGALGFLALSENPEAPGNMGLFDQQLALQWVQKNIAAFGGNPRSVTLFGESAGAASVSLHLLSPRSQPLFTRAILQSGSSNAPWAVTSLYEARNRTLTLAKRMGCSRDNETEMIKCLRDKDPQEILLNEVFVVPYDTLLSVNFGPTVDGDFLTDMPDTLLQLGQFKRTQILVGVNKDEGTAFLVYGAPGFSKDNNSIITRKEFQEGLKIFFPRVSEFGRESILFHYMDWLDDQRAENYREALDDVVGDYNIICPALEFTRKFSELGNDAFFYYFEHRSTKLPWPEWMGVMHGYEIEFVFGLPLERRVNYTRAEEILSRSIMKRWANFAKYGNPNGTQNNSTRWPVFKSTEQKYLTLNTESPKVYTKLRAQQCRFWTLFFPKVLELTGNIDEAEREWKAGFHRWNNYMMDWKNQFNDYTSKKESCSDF

[2] = molecular target: T2, butyrylcholinesterase (horse-serum E.C 3.1.1.8) (Equus caballus, UniProt P81908); assay type: biochemical; settings: butyrylthiocholine chloride substrate, DTNB, pH 8.0, 25°C, 412 nm; value ± SEM; read-out: BChE ± SEM (IC50)
T2 construct: butyrylcholinesterase (horse-serum E.C 3.1.1.8); purchased Sigma, Pakistan; host or cells: horse serum
Description: as §1, §2

## Allanzanthane [reference compound]
[1]
  IC50: 2.94 ± 0.45 µM
[2]
  IC50: 12.96 ± 0.053 µM

— paper PMC3986359, “New Cholinesterase Inhibitory Constituents from Lonicera quinquelocularis” (PLoS ONE, 2014)
